Assay results taken from BindingDB's records for doi:10.1016/s0968-0896(99)00316-8 (Universita Degli Studi Di Firenze, 2000).

What follows are compounds tested against T1, Collagenase ColG (Hathewaya histolytica, UniProt Q9X721) (assay: ChC Enzyme Inhibition Assay). Settings: not given.
T1 sequence (Q9X721 whole entry): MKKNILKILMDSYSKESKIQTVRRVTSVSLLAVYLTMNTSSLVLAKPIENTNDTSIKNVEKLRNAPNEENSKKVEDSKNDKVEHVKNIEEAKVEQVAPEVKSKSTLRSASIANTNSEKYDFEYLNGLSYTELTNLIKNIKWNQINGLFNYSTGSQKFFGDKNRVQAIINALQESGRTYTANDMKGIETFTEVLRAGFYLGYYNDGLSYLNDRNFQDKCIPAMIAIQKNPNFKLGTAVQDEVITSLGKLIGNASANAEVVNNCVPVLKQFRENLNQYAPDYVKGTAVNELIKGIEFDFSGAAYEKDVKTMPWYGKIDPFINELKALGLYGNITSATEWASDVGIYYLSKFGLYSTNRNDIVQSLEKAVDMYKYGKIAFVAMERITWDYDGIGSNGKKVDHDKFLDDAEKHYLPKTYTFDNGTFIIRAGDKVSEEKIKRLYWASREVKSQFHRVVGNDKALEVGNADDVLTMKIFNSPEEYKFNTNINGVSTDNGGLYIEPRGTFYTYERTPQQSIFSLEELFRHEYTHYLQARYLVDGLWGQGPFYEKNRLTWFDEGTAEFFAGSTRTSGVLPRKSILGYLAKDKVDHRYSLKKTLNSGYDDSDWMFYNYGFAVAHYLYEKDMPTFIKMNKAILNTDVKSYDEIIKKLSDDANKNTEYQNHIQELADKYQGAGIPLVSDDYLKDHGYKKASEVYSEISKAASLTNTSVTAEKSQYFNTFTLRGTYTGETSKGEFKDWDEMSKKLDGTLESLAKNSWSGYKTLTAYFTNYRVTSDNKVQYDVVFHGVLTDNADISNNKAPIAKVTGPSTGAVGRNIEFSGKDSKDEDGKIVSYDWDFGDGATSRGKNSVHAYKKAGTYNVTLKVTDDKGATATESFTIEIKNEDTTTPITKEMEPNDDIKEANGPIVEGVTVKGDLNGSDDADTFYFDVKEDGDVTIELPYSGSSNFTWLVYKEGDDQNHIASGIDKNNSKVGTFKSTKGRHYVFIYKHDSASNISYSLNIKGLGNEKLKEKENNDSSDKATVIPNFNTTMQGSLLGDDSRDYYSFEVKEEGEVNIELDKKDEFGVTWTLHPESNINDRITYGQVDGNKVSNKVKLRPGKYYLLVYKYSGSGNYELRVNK
Protocol: The rate of hydrolysis was determined from the change in absorbance at 324 nm using an extinction coefficient, 24700 M-1 cm-1 for FALGPA. Initial velocities were thus estimated using the direct linear plot-based procedure. The inhibition constant Ki was then determined by using Easson-Stedman plots and a linear regression program.
With `CC(C(=O)O)N(Cc1ccccc1Cl)S(=O)(=O)c1cccc2cccnc12` (centres undefined) [2-{[(2-chlorophenyl)methyl](quinoline-8-)sulfonamido}propanoic acid] the Ki was 2 µM.
For `CC(C(=O)NO)N(Cc1ccccc1Cl)S(=O)(=O)c1cccs1` (centres undefined) [2-{[(2-chlorophenyl)methyl](thiophene-2-)sulfonamido}-N-hydroxypropanamide], the Ki was 0.011 µM.
`CC(C(=O)O)N(Cc1ccccc1Cl)S(=O)(=O)c1cccs1` (centres undefined) [2-{[(2-chlorophenyl)methyl](thiophene-2-)sulfonamido}propanoic acid] showed a Ki of 2.4 µM.
`CC(C(=O)NO)N(Cc1ccccc1Cl)S(=O)(=O)C(Cl)(Cl)Cl` (centres undefined) [2-{[(2-chlorophenyl)methyl](trichloromethane)sulfonamido}-N-hydroxypropanamide] gave a Ki of 0.071 µM.
`CC(C(=O)NO)N(Cc1ccccc1Cl)S(=O)(=O)C(F)(F)F` (centres undefined) [2-{[(2-chlorophenyl)methyl](trifluoromethane)sulfonamido}-N-hydroxypropanamide] gave a Ki of 0.076 µM.
Work on `Cc1ccccc1S(=O)(=O)NC(=O)N(Cc1ccccc1Cl)C(C)C(=O)NO` (centres undefined) [2-{[(2-chlorophenyl)methyl]({[(2-methylbenzene)sulfonyl]carbamoyl})amino}-N-hydroxypropanamide] yielded a Ki of 0.01 µM.
`Cc1ccccc1S(=O)(=O)NC(=O)N(Cc1ccccc1Cl)C(C)C(=O)O` (centres undefined) [2-{[(2-chlorophenyl)methyl]({[(2-methylbenzene)sulfonyl]carbamoyl})amino}propanoic acid] showed a Ki of 4 µM.
`CC(C(=O)NO)N(Cc1ccccc1Cl)C(=O)NS(=O)(=O)c1ccc(F)cc1` (centres undefined) [2-{[(2-chlorophenyl)methyl]({[(4-fluorobenzene)sulfonyl]carbamoyl})amino}-N-hydroxypropanamide] gave a Ki of 0.009 µM.
`CC(C(=O)O)N(Cc1ccccc1Cl)C(=O)NS(=O)(=O)c1ccc(F)cc1` (centres undefined) [2-{[(2-chlorophenyl)methyl]({[(4-fluorobenzene)sulfonyl]carbamoyl})amino}propanoic acid] was tested, and the Ki was 3.6 µM.
`Cc1ccc(S(=O)(=O)NC(=O)N(Cc2ccccc2Cl)C(C)C(=O)O)cc1` (centres undefined) [2-{[(2-chlorophenyl)methyl]({[(4-methylbenzene)sulfonyl]carbamoyl})amino}propanoic acid] was tested, and the Ki was 4.1 µM.
With `CC(C(=O)NO)N(Cc1ccccc1Cl)S(=O)(=O)c1cccc(C(F)(F)F)c1` (centres undefined) [2-{[(2-chlorophenyl)methyl][3-(trifluoromethyl)benzene]sulfonamido}-N-hydroxypropanamide] the Ki was 0.006 µM.
Work on `CC(C(=O)NO)N(Cc1ccccc1Cl)S(=O)(=O)c1cccc2c(N(C)C)cccc12` (centres undefined) [2-{[(2-chlorophenyl)methyl][5-(dimethylamino)naphthalene-1-]sulfonamido}-N-hydroxypropanamide] yielded a Ki of 0.01 µM.
With `CC(C(=O)NO)N(Cc1ccccc1Cl)C(=O)Nc1ccc(F)cc1F` (centres undefined) [2-{[(2-chlorophenyl)methyl][(2,4-difluorophenyl)carbamoyl]amino}-N-hydroxypropanamide] the Ki was 0.014 µM.
Work on `CC(C(=O)O)N(Cc1ccccc1Cl)C(=O)Nc1ccc(F)cc1F` (centres undefined) [2-{[(2-chlorophenyl)methyl][(2,4-difluorophenyl)carbamoyl]amino}propanoic acid] yielded a Ki of 5.5 µM.
`CC(C(=O)NO)N(Cc1ccccc1Cl)Sc1ccc([N+](=O)[O-])cc1[N+](=O)[O-]` (centres undefined) [2-{[(2-chlorophenyl)methyl][(2,4-dinitrophenyl)sulfanyl]amino}-N-hydroxypropanamide] gave a Ki of 0.011 µM.
`CC(C(=O)O)N(Cc1ccccc1Cl)Sc1ccc([N+](=O)[O-])cc1[N+](=O)[O-]` (centres undefined) [2-{[(2-chlorophenyl)methyl][(2,4-dinitrophenyl)sulfanyl]amino}propanoic acid] showed a Ki of 6.1 µM.
In the case of `CC(C(=O)NO)N(Cc1ccccc1Cl)Sc1ccccc1[N+](=O)[O-]` (centres undefined) [2-{[(2-chlorophenyl)methyl][(2-nitrophenyl)sulfanyl]amino}-N-hydroxypropanamide], the Ki is reported as 0.012 µM.
`CC(C(=O)NO)N(Cc1ccccc1Cl)C(=O)Nc1ccc(Cl)c(Cl)c1` (centres undefined) [2-{[(2-chlorophenyl)methyl][(3,4-dichlorophenyl)carbamoyl]amino}-N-hydroxypropanamide] was tested, and the Ki was 0.015 µM.
In the case of `CC(C(=O)O)N(Cc1ccccc1Cl)C(=O)Nc1ccc(Cl)c(Cl)c1` (centres undefined) [2-{[(2-chlorophenyl)methyl][(3,4-dichlorophenyl)carbamoyl]amino}propanoic acid], the Ki is reported as 5.8 µM.
With `CC(C(=O)O)N(Cc1ccccc1Cl)C(=O)Nc1ccc(F)cc1` (centres undefined) [2-{[(2-chlorophenyl)methyl][(4-fluorophenyl)carbamoyl]amino}propanoic acid] the Ki was 7.4 µM.
`CC(C(=O)NO)N(Cc1ccccc1Cl)C(=S)NC(=O)c1ccccc1` (centres undefined) [2-{[(2-chlorophenyl)methyl][(phenylformamido)methanethioyl]amino}-N-hydroxypropanamide] gave a Ki of 0.006 µM.
In the case of `CC(C(=O)O)N(Cc1ccccc1Cl)C(=S)NC(=O)c1ccccc1` (centres undefined) [2-{[(2-chlorophenyl)methyl][(phenylformamido)methanethioyl]amino}propanoic acid], the Ki is reported as 0.9 µM.
In the case of `CC(C(=O)NO)N(Cc1ccccc1Cl)C(=O)Nc1cccc(Cl)c1` (centres undefined) [2-{[(3-chlorophenyl)carbamoyl][(2-chlorophenyl)methyl]amino}-N-hydroxypropanamide], the Ki is reported as 0.017 µM.
Work on `CC(C(=O)O)N(Cc1ccccc1Cl)C(=O)Nc1cccc(Cl)c1` (centres undefined) [2-{[(3-chlorophenyl)carbamoyl][(2-chlorophenyl)methyl]amino}propanoic acid] yielded a Ki of 7.6 µM.
With `CC(C(=O)O)N(Cc1ccccc1Cl)C(=O)Nc1ccc(Cl)cc1` (centres undefined) [2-{[(4-chlorophenyl)carbamoyl][(2-chlorophenyl)methyl]amino}propanoic acid] the Ki was 6.8 µM.
With `CC(C(=O)NO)N(Cc1ccccc1Cl)S(=O)(=O)c1ccccc1` (centres undefined) [2-{benzene[(2-chlorophenyl)methyl]sulfonamido}-N-hydroxypropanamide] the Ki was 0.058 µM.
`CC(C(=O)O)N(Cc1ccccc1Cl)S(=O)(=O)c1cccc(C(=O)O)c1` (centres undefined) [3-[(1-carboxyethyl)[(2-chlorophenyl)methyl]sulfamoyl]benzoic acid] was tested, and the Ki was 4.1 µM.
Compound `CC(C(=O)O)N(Cc1ccccc1Cl)S(=O)(=O)c1ccc(C(=O)O)cc1` (centres undefined) [4-[(1-carboxyethyl)[(2-chlorophenyl)methyl]sulfamoyl]benzoic acid] has a Ki of 3.8 µM.
`C[C@@H](C(=O)NO)N(Cc1ccccc1Cl)C(=O)Nc1ccc(F)cc1` [(2S)-2-{[(2-chlorophenyl)methyl][(4-fluorophenyl)carbamoyl]amino}-N-hydroxypropanamide] gave a Ki of 0.018 µM.
Compound `C[C@@H](C(=O)NO)N(Cc1ccccc1Cl)Sc1ccc([N+](=O)[O-])cc1` [N-4-Nitrophenylsulfenyl-N-2-chlorobenzyl-L-alanine hydroxamate] has a Ki of 0.013 µM.

Same assay, conditions: pH 7.5; 25 °C
In the case of `CC(C(=O)O)N(Cc1ccccc1Cl)S(=O)(=O)Cc1ccccc1` (centres undefined) [2-{[(2-chlorophenyl)methyl](phenylmethane)sulfonamido}propanoic acid], the Ki is reported as 16 µM.
For `CC(C(=O)O)N(Cc1ccccc1Cl)S(=O)(=O)C(Cl)(Cl)Cl` (centres undefined) [2-{[(2-chlorophenyl)methyl](trichloromethane)sulfonamido}propanoic acid], the Ki was 5.2 µM.
In the case of `CC(C(=O)O)N(Cc1ccccc1Cl)S(=O)(=O)C(F)(F)F` (centres undefined) [2-{[(2-chlorophenyl)methyl](trifluoromethane)sulfonamido}propanoic acid], the Ki is reported as 3.3 µM.
Compound `CC(C(=O)O)N(Cc1ccccc1Cl)S(=O)(=O)c1ccccc1` (centres undefined) [2-{benzene[(2-chlorophenyl)methyl]sulfonamido}propanoic acid] has a Ki of 24 µM.
